Drawing on patent US7713985B2, “Adenosine Aa2 receptor antagonists” (Schering Corporation, priority 2006, dated 2010), this text covers Ki for one compound.

The test concerns the target Human A2a Adenosine Receptor (Homo sapiens, UniProt P29274). As to the kind of experiment: Human adenosine A2a receptor competition binding assay. To be noted: read-out: A2a Ki; [3H]-SCH 58261 displacement, human A2a membranes. The procedure:
Human Adenosine A2a and A1 Receptor Competition Binding Assay Protocol
A2a: Human A2a Adenosine Receptor membranes, Catalog #RB-HA2a, Receptor Biology, Inc., Beltsville, Md. Dilute to 17 μg/100 μl in membrane dilution buffer (see below).
Membrane dilution buffer: Dulbecco's Phosphate Buffered Saline (Gibco/BRL)+10 mM MgCl2.
Compound Dilution Buffer: Dulbecco's Phosphate Buffered Saline (Gibco/BRL)+10 mM MgCl2 supplemented with 1.6 mg/ml methyl cellulose and 16% DMSO. Prepared fresh daily.
A2a: [3H]-SCH 58261, custom synthesis, AmershamPharmacia Biotech, Piscataway, N.J. Stock is prepared at 1 nM in membrane dilution buffer. Final assay concentration is 0.5 nM.
A2a: To determine non-specific binding, add 100 nM CGS 15923 (RBI, Natick, Mass.). Working stock is prepared at 400 nM in compound dilution buffer.
Prepare 1 mM stock solutions of compounds in 100% DMSO. Dilute in compound dilution buffer. Test at 10 concentrations ranging from 3 μM to 30 pM. Prepare working solutions at 4× final concentration in compound dilution buffer.
Perform assays in deep well 96 well plates. Total assay volume is 200 μl. Add 50 μl compound dilution buffer (total ligand binding) or 50 μl CGS 15923 working solution (A2a non-specific binding) or 50 μl NECA working solution (A1 non-specific binding) or 50 μl of drug working solution. Add 50 μl ligand stock ([3H]-SCH 58261 for A2a, [3H]-DPCPX for A1). […]

Each structure is given as a SMILES string. pKi: −log10 of the molar value.

Usually pKi stands for the Ki on a negative log10 scale, so that one unit is a factor of ten. As to `Nc1nc2ccccc2c2nn(-c3ccccc3)c(=O)n12`, the pKi is 7.75.
